Assay results published in article PMC4956724, “Assessing the reliability of uptake and elimination kinetics modelling approaches for estimating bioconcentration factors in the freshwater invertebrate, Gammarus pulex” (The Science of the Total Environment, 2016).

How the values were obtained:
G. pulex [1] = settings: ref Ashauer et al. (2010); cited from earlier work
G. pulex [2] = assay: Re-examination of raw toxicokinetic data from Ashauer et al. (2010) using the OECD 305 modelling approach; settings: 2010 re-modelled

Structure (SMILES): Cc1cc([N+](=O)[O-])cc([N+](=O)[O-])c1O
- BAF (G. pulex [1]): 37
- BCF, Sequential BCF (G. pulex [2]; sequential method): 51 L kg^− 1
- k1, Sequential BCF (G. pulex [2]; sequential method): 37 L kg^− 1 day^− 1
- k2, Sequential BCF (G. pulex [2]; sequential method): 0.729 day^− 1
- BCF, Simultaneous BCF (G. pulex [2]; simultaneous method): 34 L kg^− 1
- k1, Simultaneous BCF (G. pulex [2]; simultaneous method): 39 L kg^− 1 day^− 1
- k2, Simultaneous BCF (G. pulex [2]; simultaneous method): 1.146 day^− 1
